Our source for the fold change values is PubChem BioAssay AID1259312 (Keith Lab, Institute of Cancer Science, University of …, 2017).

Each structure is given as a SMILES string. The list shows a part of the results, in another mix than the full data. Some of these compounds have results that are not shown, active ones among them. The source made the active and inactive calls.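 Rule for the calls: active = cell survival measured by absorbance rises more than 2.5-fold over infected cells without compound; inactive = the rest.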

The experiment is described as follows: survival after telomere uncapping, modulators, primary screen, cell-based (AID 1259312).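 Note: virus expresses mutant telomerase RNA that uncaps telomeres and kills cells; compound added 2 days after infection so exposure lasts 3 days.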 The conditions noted are these: HCT116 + Ad-hTR-mut, MTT, 5 d, at 10 µM, stronger effect = higher value.
For `Cc1cc(C)c(C=C(C#N)C#N)c(C)c1`, the fold change was inactive: -1.08.
